This is an account of results in patent US20180036433A1, “COMPOUNDS FOR THE DIAGNOSIS OR TREATMENT OF DISORDERS ASSOCIATED WITH PROTEIN OR PEPTIDE OLIGOMERS” (Agency for Science, Technology and Research, priority 2014, published 2018).

Protein sequences, listed by entry. Tags and fused reporters are not part of them. Residues count along the entry.
UniProt P05067, 672-711 limits assumed: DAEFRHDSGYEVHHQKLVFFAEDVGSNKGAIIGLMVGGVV

Data set [1] deals with Aβ oligomers/plaques in APP/PS1 transgenic mouse brain.
In the next data set the target is Aβ oligomers (Homo sapiens, UniProt P05067). Kind of data set: Saturation binding assay (fluorescence, Scatchard plot) with Aβ oligomers. Conditions: saturation binding fit of FIG. 4.
For data set [2], the target named is Aβ1-40 on-fibril pathway oligomers (Homo sapiens, UniProt P05067). Put plainly: Time-dependent Aβ fibril formation monitored by dye fluorescence. It counts as binding. Particulars: dye 5 μM, Aβ 20 μM, 37° C.
Data set [3] relates to APP K670N/M671L/PS1 M146L (APP/PS1) Tg mice. Kind of data set: Chronic I.P. treatment of APP/PS1 Tg mice with sensorimotor and radial arm maze testing. In kind it is in vivo, mouse.
Another data set relates to Aβ oligomers in AD brain. Put plainly: Brain tissue staining, co-localization with A11 oligomer-specific antibody.
Data set [4] has as its target monomers, oligomers and fibrils of Aβ (synthetic Aβ1-40) (Homo sapiens, UniProt P05067). Kind of data set: Fluorescence response to pre-formed Aβ monomers, oligomers and fibrils. Particulars: dye 5 μM, Aβ 20 μM. It counts as binding.

For `CCOc1cccc(/C=C/c2cc(C)c3n2[B-](F)(F)[N+]2=C(CCC(=O)OCC(Cl)(Cl)Cl)C=CC2=C3)c1O`, the “fluorescent labeling of plaques in brain after I.P. injection” value in data set [1] (18 month old APP/PS1 mice, 0.28 mg/kg I.P., brains removed 24 hr after injection) is given as “led to fluorescent labeling of plaques”. In data set [1] (APP/PS1 mice, I.P., 0.28 mg/kg), the blood-brain barrier penetration result was “successfully penetrated the BBB” and the toxicity in vivo result is on record as “without toxicity”. Moreover, the “Bmax, best-fit value (statistics of FIG. 4)” value at Aβ oligomers was 7.886. The “fluorescence over the time course of Aβ fibril formation” value in data set [2] is “reached maximum fluorescence intensity at about day-1 incubation, followed by a decrease in signal”. Besides, in data set [3] (0.03 mg/kg I.P. twice per week for 2 months), the “locomotor activity versus vehicle-treated Tg mice” value is reported as “No differences in locomotor activity”. Further, the “errors on radial arm maze versus vehicle-treated Tg mice” value in data set [3] (0.03 mg/kg I.P. twice per week for 2 months, tested at age 6 months, p<0.001) was “clear cognitive benefit with fewer errors on the radial arm maze”. Further, the “presence of compound in mouse brain” value in data set [3] (after one-month I.P. treatment) is listed as “presence of BDP-1 in mouse brain”. Also, in the data set on Aβ oligomers in AD brain, the “overlap of staining with areas labeled by A11 oligomer-specific antibody” value was “significant overlap with areas labeled by the A11 oligomer-specific antibody”. Besides, the “fluorescence response to Aβ monomers, oligomers and fibrils” value in data set [4] is reported as “highest fluorescence enhancement was observed upon incubation with Aβ oligomers”.
